## scFv variants of Ab-14 (light chain) against a SARS-CoV-2 spike peptide

All variants were tested on one target, the spike HR2 peptide PDVDLGDISGINAS (SARS-CoV-2).

Ab-14 is the parent antibody, in scFv form: VH, then a 15-residue (Gly4Ser)3 linker, then VL. The heavy chain is unchanged in all variants.
VH: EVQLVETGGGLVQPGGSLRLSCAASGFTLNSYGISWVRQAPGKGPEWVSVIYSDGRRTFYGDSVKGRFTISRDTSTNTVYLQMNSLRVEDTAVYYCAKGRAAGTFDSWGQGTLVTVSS
VL: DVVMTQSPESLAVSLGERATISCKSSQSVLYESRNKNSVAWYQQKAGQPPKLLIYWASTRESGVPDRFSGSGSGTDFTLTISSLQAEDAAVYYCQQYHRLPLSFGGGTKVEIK

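The variants were designed computationally from a first round of random CDR variants and then made and measured. Group labels follow the data file (En: ensemble of fine-tuned language models; GP: Gaussian process model; HC: hill climbing; Gen: genetic algorithm; Gibbs: Gibbs sampling; a sequence that several methods proposed may carry one label only). In AlphaSeq, yeast of one mating type display the scFv and yeast of the other type display the target. Pairs that bind mate more often; barcode pairs of the diploids are counted by sequencing. Each replicate has its own calibration line, from reference interactions of the BCL2 family. The assay was run in six technical replicates.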

The parent's light chain CDRs are KSSQSVLYESRNKNSVA, WASTRES, QQYHRLPLS; each variant's own CDRs replace them letter for letter.
Variants here have more than six changes.
The read-out is the apparent dissociation constant on a log10 scale (nM): the lower, the stronger.
Replicates are averaged; those with no signal do not enter the mean.
"nd" means that the variant was in the library but no mating with the target was seen in any replicate; the authors take this as a sign of poor binding, and no number exists.

The variant KLQQSELYESRNQNSVA / GASTRLE / QQYHRLPLS [GP_Gibbs] showed 0.41 (6 of 6 replicates; controls 0 of 18).
The variant NLSWKREMQNMDYYAVA / QTEIREA / QQYAILPLS [En_Gibbs] showed 0.72 (6 of 6 replicates; controls 1 of 18).
The variant QISLNGWDGTKKEYAVA / EGTKRDA / QQYSRLPLS [En_Gibbs] showed 0.43 (6 of 6 replicates; controls 1 of 18).
The variant KLQFGNLYESRNQNSVA / KASTRLQ / QQYHRLPLS [GP_Gibbs] showed 0.72 (6 of 6 replicates; controls 0 of 18).
The variant KITATMRFEQKASNNIA / EVTLRSK / QQYYRLPLS [En_Gen] showed 1.01 (6 of 6 replicates; controls 0 of 18).
The variant KDSQSVPYEDRNLNNVA / HASTRES / QQYHRLPLM [GP_Gibbs] showed -0.19 (6 of 6 replicates; controls 2 of 18).
The variant QINVNRLMNYTMNNAIA / GKTLRVD / QQYARLPLS [En_Gibbs] showed 1.58 (5 of 6 replicates; controls 0 of 18).
The variant KIQQSVWMESRNVNNVA / NASTRED / QQYHRLPLS [GP_Gibbs] showed -0.14 (6 of 6 replicates; controls 2 of 18).
The variant TLMFDGEYSDKENYAIA / DAIHTQV / QQYVRLPLS [En_Gibbs] showed 0.92 (6 of 6 replicates; controls 0 of 18).
The variant TLSGPMLSESKNKNSVA / EFSTRGS / QQYHRLPLS [En_HC] showed 1.17 (6 of 6 replicates; controls 0 of 18).
The variant QLEWYNSTATAAKNSVA / GVAHRMN / QQYMRLPLM [En_Gibbs] showed 0.29 (6 of 6 replicates; controls 0 of 18).
The variant SFSQSVLYESVMKNNVA / QTSTREE / QQYDHLPLS [En_HC] showed 0.19 (6 of 6 replicates; controls 1 of 18).
The variant KVSEFMKGLMSRQDSIA / DNTTRNS / QQYDRLPLS [En_Gen] showed 2.91 (1 of 6 replicates; controls 0 of 18).
The variant HISSLTLQGMRQRNSVA / QMTTREN / QQYDHLPLS [En_Gen] showed 0.53 (6 of 6 replicates; controls 0 of 18).
The variant KLSQSVRMESFVKDNVA / ENSTREA / QDYHRLPLS [En_HC] showed 1.72 (3 of 6 replicates; controls 0 of 18).
The variant KLSEFMRGLMGRKDSIA / DNTTRGS / QQYDRLPLS [En_Gen] showed 2.98 (2 of 6 replicates; controls 0 of 18).
The variant KLEQGDLMESRNKNSVA / HASMRES / QQYHRLPLS [GP_Gibbs] showed 0.19 (6 of 6 replicates; controls 0 of 18).
The variant NITQIFDNMGDQRSNVA / NGETLFH / QQYARLPFL [En_Gibbs] showed 0.72 (6 of 6 replicates; controls 0 of 18).
The variant KLTMITGLEKVSKNNVA / EMETREQ / QQYNRLPLS [En_Gen] showed 0.31 (6 of 6 replicates; controls 1 of 18).
The variant MISNVMNTLTRQGNNVA / DLAEREE / QQYFRLPLS [En_Gen] showed 0.73 (6 of 6 replicates; controls 0 of 18).
The variant QIYQAMHTLSQVKDNVA / DVSERGS / QQYFRLPLS [En_Gen] showed 0.41 (6 of 6 replicates; controls 1 of 18).
The variant TISQITSLFSQTINNVA / EVTTREA / QQYDRLPLT [En_Gen] showed 2.69 (1 of 6 replicates; controls 0 of 18).
The variant MINMEVGIEDMKWSSVA / SAHVRAF / QQYGRLPFS [En_Gibbs] showed 2.09 (6 of 6 replicates; controls 1 of 18).
The variant KITGMWTFESHQRNNIA / EESTRED / QSYHRLPLS [En_HC] showed 1.24 (6 of 6 replicates; controls 3 of 18).
The variant MMSQVTGMESRHRNNVA / QTSTREP / QQYDRLPLI [En_Gen] showed 1.08 (6 of 6 replicates; controls 0 of 18).
The variant SLGLSTMLEEYVRNSVA / NNSTREE / QQYDRLPLS [En_Gen] showed nd (0 of 6 replicates; controls 0 of 18).
The variant KLLQNVMTEGRKRNNVA / HMDMRED / QQYWRLPLS [En_HC] showed 1.86 (6 of 6 replicates; controls 2 of 18).
The variant TVSQVTEMLSRNKNSVA / DMNTRES / QQYDRLPLS [En_HC] showed -0.02 (6 of 6 replicates; controls 1 of 18).
The variant KLSGLMQSSKFAKDNVA / ENNTRED / QQYDRLPLS [En_Gen] showed 2.30 (2 of 6 replicates; controls 1 of 18).
The variant TISQITSLFSQTINNVA / EVSTREQ / QQYDRLPLM [En_Gen] showed 0.88 (6 of 6 replicates; controls 3 of 18).
The variant QLGGLMTWEEKARNSVA / QQETRAE / QQYHHLPLS [En_HC] showed 0.46 (6 of 6 replicates; controls 2 of 18).
The variant KLGGVTEYEMRNKNSVA / QMTTREN / QQYHRLPLS [En_HC] showed 0.25 (6 of 6 replicates; controls 3 of 18).
The variant KIDGQRSYQGGRERAIA / DANIRQR / QQYNRLPLV [En_Gibbs] showed 0.60 (6 of 6 replicates; controls 1 of 18).
The variant IVSQLMLWGMHAKNSIA / EAEMRTN / QQYDRLPLF [En_Gen] showed 1.20 (1 of 6 replicates; controls 0 of 18).
The variant KISQFYEYESRNKNSVA / SASTRMV / QQYHRLPLS [GP_Gibbs] showed 0.28 (6 of 6 replicates; controls 5 of 18).
The variant KLTMITGLEKVSNNNVA / EMETREV / QQYNRLPLS [En_Gen] showed 0.37 (6 of 6 replicates; controls 0 of 18).
The variant RLSQSVLQEERNDNSVA / SASTRCS / QQYHRLPLS [GP_Gibbs] showed 0.41 (6 of 6 replicates; controls 0 of 18).
The variant RLSSELMAGEISYNAIA / NGKVLEY / QQYMRLPLG [En_Gibbs] showed 0.32 (6 of 6 replicates; controls 2 of 18).
The variant KIGFTLNMLEYKQNNVA / DLVTREN / QQYHRLPLS [En_Gen] showed 1.09 (6 of 6 replicates; controls 0 of 18).
The variant NIYQAMHTLMQARNNVA / DVTNRNQ / QQYFRLPLS [En_Gen] showed 0.81 (6 of 6 replicates; controls 0 of 18).
The variant NMQLQVRSGNNNKYNIA / AEMLREY / QQYNRLPLS [En_Gibbs] showed 1.05 (5 of 6 replicates; controls 0 of 18).
The variant KLDQWVEMGSRNKNSVA / SASQRFS / QQYHRLPLS [GP_Gibbs] showed 0.42 (6 of 6 replicates; controls 0 of 18).
The variant SVQYFPEESLRGASAIA / DVNIKVM / QQYSRLPLA [En_Gibbs] showed 0.36 (6 of 6 replicates; controls 1 of 18).

A selection of 3 entries from above:

| CDR-L1 | CDR-L2 | CDR-L3 | group | mean, log10 nM | detected | empty controls |
|---|---|---|---|---|---|---|
| NMQLQVRSGNNNKYNIA | AEMLREY | QQYNRLPLS | En_Gibbs | 1.05 | 5 of 6 | 0 of 18 |
| KITATMRFEQKASNNIA | EVTLRSK | QQYYRLPLS | En_Gen | 1.01 | 6 of 6 | 0 of 18 |
| KLTMITGLEKVSNNNVA | EMETREV | QQYNRLPLS | En_Gen | 0.37 | 6 of 6 | 0 of 18 |

Empty control strains, which show no peptide, gave a signal in 4% of pairings with all light chain designs; the median was 2.64 and 95% of these signals were weaker than 1.59. No background was subtracted. Also given: how often the same scFv was detected with the empty control strains.
A sequence measured in both rounds can read differently, since the two assays cover different ranges.
In the paper, a design with two or fewer of six values counts as a poor binder.

Data: MIT Lincoln Laboratory AlphaSeq set, Li et al. 2023, doi:10.1038/s41467-023-39022-2, as distributed in FLAb.